One compound from paper PMC9594040, “Structure-Based Discovery of Negative Allosteric Modulators of the Metabotropic Glutamate Receptor 5” (ACS Chemical Biology, 2022) can be followed below.

Sequences of proteins named here, by UniProt entry; tags and fusion partners are left off. Residues count along the entry.
UniProt P41594, 21-1212: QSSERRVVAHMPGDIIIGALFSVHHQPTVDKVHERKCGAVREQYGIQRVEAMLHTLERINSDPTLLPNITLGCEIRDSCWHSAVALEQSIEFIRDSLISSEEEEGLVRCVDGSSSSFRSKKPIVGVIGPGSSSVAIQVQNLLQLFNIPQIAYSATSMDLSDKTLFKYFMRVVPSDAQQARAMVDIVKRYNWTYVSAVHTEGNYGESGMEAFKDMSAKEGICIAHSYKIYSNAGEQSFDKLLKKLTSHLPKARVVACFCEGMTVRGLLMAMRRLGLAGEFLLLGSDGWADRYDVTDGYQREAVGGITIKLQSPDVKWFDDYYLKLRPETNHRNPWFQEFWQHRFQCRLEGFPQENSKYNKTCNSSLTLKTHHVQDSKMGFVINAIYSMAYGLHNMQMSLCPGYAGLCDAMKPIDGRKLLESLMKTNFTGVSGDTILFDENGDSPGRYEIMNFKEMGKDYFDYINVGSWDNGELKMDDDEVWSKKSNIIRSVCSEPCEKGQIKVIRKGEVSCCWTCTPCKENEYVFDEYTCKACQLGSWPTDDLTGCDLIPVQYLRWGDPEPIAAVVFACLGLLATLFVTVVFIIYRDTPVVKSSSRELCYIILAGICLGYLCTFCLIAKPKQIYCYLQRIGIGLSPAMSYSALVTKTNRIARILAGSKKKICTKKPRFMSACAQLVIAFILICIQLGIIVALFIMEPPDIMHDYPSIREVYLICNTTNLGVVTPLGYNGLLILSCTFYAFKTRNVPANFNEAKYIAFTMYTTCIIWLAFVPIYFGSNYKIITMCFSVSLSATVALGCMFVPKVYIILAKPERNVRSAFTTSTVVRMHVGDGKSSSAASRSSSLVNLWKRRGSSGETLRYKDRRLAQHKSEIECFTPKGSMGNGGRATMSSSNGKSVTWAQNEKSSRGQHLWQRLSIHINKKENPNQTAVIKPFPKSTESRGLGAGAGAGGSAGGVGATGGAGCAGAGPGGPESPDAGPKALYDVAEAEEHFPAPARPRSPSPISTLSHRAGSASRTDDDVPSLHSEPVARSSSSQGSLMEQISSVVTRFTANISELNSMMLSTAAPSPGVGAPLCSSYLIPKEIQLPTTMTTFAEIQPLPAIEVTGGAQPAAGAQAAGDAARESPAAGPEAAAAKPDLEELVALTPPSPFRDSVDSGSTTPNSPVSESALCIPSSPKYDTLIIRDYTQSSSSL

In assay [1] the target is T1, human mGlu5 (Homo sapiens, UniProt P41594). Briefly: IP1 functional assay, quisqualate-stimulated HEK293 cells expressing mGlu5. In kind it is cell-based. Details: expressed in transfected cells; host or cells: HEK293 cells, transient electroporation; glutamate transporter EAAC1 co-transfected. The note with it: quisqualate 50 nM; mean ± SEM of 3–5 independent experiments. On the procedure:
Figure 3 Evaluation of compounds F1 and F2 in functional assays. Representative dose–response curve of compounds (a) F1 and (b) F2 in an IP1 functional assay. […] Each point was performed in triplicate and is shown as a mean ± SEM of 3–5 independent experiments.
HEK293 cells were cultured in Dulbecco’s modified Eagle’s medium (DMEM) supplemented with 10% fetal bovine serum (FBS) and were maintained at 37 °C in a humidified atmosphere with 5% CO2. Transient transfection was performed using electroporation in a volume of […] with […] of plasmid encoding SNAP-tag human mGlu5, […] plasmid encoding for the glutamate transporter EAAC1 plasmids, and 10 million of HEK293 cells in electroporation buffer (50 mM K2HPO4, 20 mM CH3COOK, and 20 mM KOH, pH 7.4). After electroporation (250 V, 0.5 mF, Bio–Rad Gene Pulser electroporator; Bio-Rad Laboratories, Hercules, CA), cells were resuspended in 10 mL of DMEM supplemented with 10% FBS and seeded for 24 h into black, clear-bottom 96-well culture plates (Greiner Bio-one), pretreated with Poly-L-Ornithine 1X, at a density of 100,000 cells per well. […] The IP1 accumulation assay kit (Cisbio Bioassays, PerkinElmer) was used for the direct quantitative measurement of IP1. […] Terbium cryptate fluorescence and tr-FRET signals were measured at 620 and 665 nm, respectively, using a PheraStar fluorimeter (BMG Labtech).

In assay [2] the target is T1, human mGlu5. Briefly: Radioligand displacement assay (radiolabeled MPEP) on membranes of HEK293 cells stably expressing mGlu5. The settings on record: mean ± SEM of two experiments. In general terms: Loss of bound radioactivity is the signal in a displacement assay; it reports binding, not function.

In turn, `Cc1cccc(C#Cc2ccccc2)n1` [MPEP, 2-Methyl-6-(Phenylethynyl)-Pyridine, reference compound] showed an IC50 in assay [1] of 66.1 nM. Further, the Ki in assay [2] turned out to be 7.6 ± 0.1 nM.

As usually defined, the IC50 is the midpoint of a concentration-inhibition curve. The Ki is a measure of affinity in units of concentration, obtained from inhibition or displacement.
